The conditions of series [1]: Crystal; DTA.
Series [2] can be described thus: Molar enthalpy of transition or fusion. The following applies: Crystal; DSC.

Molecules are shown by their SMILES. Numbers after ± are expanded uncertainties.

Turning to `O=C1CCC(=O)O1` [succinic anhydride], the Normal melting temperature in series [1] is 120.02 ± 0.61 °C. In addition, the “Molar enthalpy of transition or fusion” value in series [2] worked out at 4.19 ± 0.311 kcal/mol.

(Values after the NIST ThermoML archive (doi:10.1016/j.jct.2016.09.025).)
